Measured values as given in PubChem BioAssay AID504692 (The Scripps Research Institute Molecular Screening Center, 2011).
Only a part is listed here, and it is no random draw. Activity calls are given as the source filed them. No stated cut-off is given here; in the data, active means activation mostly above about 9.5% (no sharp cut-off); inactive means mostly below about 7.6%.

Protein sequences, listed by entry. Tags and fused reporters are not part of them.
UniProt P47898, whole entry, looked up: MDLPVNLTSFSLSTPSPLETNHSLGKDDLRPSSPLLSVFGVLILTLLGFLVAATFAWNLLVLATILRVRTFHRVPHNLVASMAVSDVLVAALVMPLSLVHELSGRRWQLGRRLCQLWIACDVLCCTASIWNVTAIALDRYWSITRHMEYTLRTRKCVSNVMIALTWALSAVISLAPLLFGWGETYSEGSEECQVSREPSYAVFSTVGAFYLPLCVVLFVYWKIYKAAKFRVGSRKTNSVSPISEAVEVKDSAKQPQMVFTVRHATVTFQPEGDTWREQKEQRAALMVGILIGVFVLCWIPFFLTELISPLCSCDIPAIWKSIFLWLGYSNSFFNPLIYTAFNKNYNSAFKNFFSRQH

These compounds were tested against 5-hydroxytryptamine receptor 5A (Homo sapiens) (UniProt P47898) (assay: HTR5A agonists in luminescence cell assay, primary screen, counter-screen for OPRM1-OPRD1 heterodimer agonist project, full-deck HTS (AID 504692;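 further: 0% = cells with vehicle only and 100% = reference agonist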)). Conditions: cell-based, at 9.3 µM, hits give high values.

Question: `O=C(Cn1c(-c2ccco2)nc2ccccc21)N1CCCCC1` was tested. Which activation did it give?
Answer: inactive: 2.67%

Question: `O=C(C1CCCN1S(=O)(=O)c1cccc2cccnc12)N1CCn2c1nc1ccccc12` (stereo unspecified) was tested. Which activation did it give?
Answer: inactive: 4.49%

Question: How did the activation turn out when `Cn1c(=O)c2ncn(CC(=O)Nc3ccc(N4CCOCC4)cc3)c2n(C)c1=O` was run?
Answer: inactive: 4.34%

Question: How did the activation turn out when `CCOC(=O)C1CCCN(C(=O)Cn2cnc3c2c(=O)n(C)c(=O)n3C)C1` (stereo unspecified) was run?
Answer: inactive: -2.84%

Question: With `Cc1ccc(Cn2c(=O)c3c(nc4n3CCN4Cc3ccco3)n(C)c2=O)cc1` as the compound, how does the activation read?
Answer: inactive: 0.12%

Question: Which activation does the source give for `CC(C)(C)C(=O)N1CCn2c1nc1ccccc12` here?
Answer: inactive: -2.78%

Question: With `Cc1nc2cc(C(F)(F)F)ccc2n1CCNc1nc(-c2cc(Cl)c(N)c(Cl)c2)cs1` as the compound, how does the activation read?
Answer: inactive: 2.13%

Question: `Cn1c(=O)c2c(ncn2CC(=O)N2CCN(C(=O)c3ccco3)CC2)n(C)c1=O` was tested. Which activation did it give?
Answer: inactive: 0.12%

Question: For `O=S(=O)(c1ccccc1)N1CCn2c(nc3ccccc32)C1`, which activation is on record?
Answer: inactive: -3.29%

Question: For `CCOC(=O)CSc1nc2ccccc2n1CC(=O)N(C(C)C)C(C)C`, which activation is on record?
Answer: inactive: -1.58%

Question: `Cn1c(=O)c2c(ncn2CCNC2=NCCCCC2)n(C)c1=O` was tested. Which activation did it give?
Answer: inactive: -0.54%

Question: How did the activation turn out when `COc1ccc(NS(=O)(=O)c2cc(NC(=O)Cn3cnc4c3c(=O)n(C)c(=O)n4C)ccc2C)cc1` was run?
Answer: inactive: -2.79%

Question: For `O=C1NCN(c2ccccc2)C12CCNCC2`, which activation is on record?
Answer: inactive: 2.25%

Question: With `O=C(Cn1cnc2c(NCc3ccccc3)ncnc21)NCc1ccc2[nH]ccc2c1` as the compound, how does the activation read?
Answer: inactive: 0.42%

Question: Which activation does the source give for `O=C(c1ccc(Cl)cc1)N1CCn2c1nc1ccccc12` here?
Answer: inactive: 1.32%

Question: `O=P1(N(CCCl)CCCl)OCCC2CCCCN21` (stereo unspecified) was tested. Which activation did it give?
Answer: inactive: -2.13%

Question: How did the activation turn out when `CC(C)NC(=O)Cn1c(SCC(=O)N2c3ccccc3CC2C)nc2ccccc21` (stereo unspecified) was run?
Answer: inactive: 0.72%

Question: How did the activation turn out when `Cc1ccc(CN2C(=O)c3ccccc3NC23CCN(Cc2ccccc2)CC3)cc1` was run?
Answer: inactive: -4.27%

Question: With `CC(=O)NC(C)c1nc2ccccc2n1CC(=O)N1C(C)CCCC1C` (stereo unspecified) as the compound, how does the activation read?
Answer: inactive: 3.82%

Question: For `CCCS(=O)(=O)N1CCn2c(nc3ccccc32)C1`, which activation is on record?
Answer: inactive: 1.55%

Question: `CCC(=O)Nc1cccc(C(=O)/C=C/c2cc(Br)ccc2OC)c1` was tested. Which activation did it give?
Answer: inactive: -4.89%

Question: With `O=C(Cn1c(-c2cscn2)nc2ccccc21)Nc1ccccc1F` as the compound, how does the activation read?
Answer: inactive: 7.71%

Question: Which activation does the source give for `O=C(Nc1nc2ccccc2n1CCN1CCCCC1)c1ccco1` here?
Answer: inactive: 5.05%

Question: For `O=S(=O)(c1ccccc1)c1nnn2c1nc(NC1CCN(Cc3ccccc3)CC1)c1ccccc12`, which activation is on record?
Answer: inactive: 1.95%

Question: With `O=C(Cn1cnc2c(NCc3ccccc3)ncnc21)N1CCN(c2ccccn2)CC1` as the compound, how does the activation read?
Answer: inactive: -1.47%

Question: With `COc1ccccc1C(=O)Nc1ccc2c(c1)nc1n2CCN(C2CCCCC2)C1` as the compound, how does the activation read?
Answer: inactive: 6.1%

Question: How did the activation turn out when `CC(NC(=O)CCNC(=O)N1CCn2c1nc1ccccc12)c1ccccc1` (stereo unspecified) was run?
Answer: inactive: -3.59%

Question: `CC1Cc2ccccc2N1C(=O)Cn1cnc2c1c(=O)n(C)c(=O)n2C` (stereo unspecified) was tested. Which activation did it give?
Answer: inactive: 2.44%

Question: For `O=C(Nc1nc2ccccc2n1CCN1CCCCC1)C1CCCCC1`, which activation is on record?
Answer: inactive: -5.69%

Question: Which activation does the source give for `Cn1c(=O)c2c(nc(CN3CCN(C(=O)c4ccco4)CC3)n2CC(N)=O)n(C)c1=O` here?
Answer: inactive: 1.07%

Question: With `Cc1ccc(-c2csc(NCCn3c(C(F)(F)F)nc4ccccc43)n2)cc1` as the compound, how does the activation read?
Answer: inactive: -0.03%

Question: `CC(O)CNc1nc2ccccc2n1CC(=O)NCCc1ccc(Cl)cc1` (stereo unspecified) was tested. Which activation did it give?
Answer: inactive: 2.87%

Question: Which activation does the source give for `CN(CC(=O)Nc1cccc(F)c1)C(=O)Cn1cnc2c1c(=O)n(C)c(=O)n2C` here?
Answer: inactive: -2.56%

Question: `CC(C)NC(=O)Cn1c(SCC(=O)N2CCCCCC2)nc2ccccc21` was tested. Which activation did it give?
Answer: inactive: -2.41%

Question: With `COc1ccc(CCNC(=O)Cn2c(-c3nonc3N)nc3ccccc32)cc1OC` as the compound, how does the activation read?
Answer: inactive: 2.2%

Question: How did the activation turn out when `O=C(Cn1c(COc2ccccc2)nc2ccccc21)Nc1cc(Cl)ccc1Cl` was run?
Answer: inactive: 4.48%

Question: How did the activation turn out when `COc1ccc(CC(=O)N2CCC(Nc3nc4ccccc4n3Cc3ccc(F)cc3)CC2)cc1` was run?
Answer: inactive: 2.45%

Question: Which activation does the source give for `Cc1ccccc1NC(=O)Cn1cnc2c1c(=O)n(C)c(=O)n2C` here?
Answer: inactive: 3.73%

Question: How did the activation turn out when `O=C(NCCn1c(C(F)(F)F)nc2ccccc21)[C@H]1CCCN1c1nc(CN2CCCCC2)cs1` was run?
Answer: inactive: 8.98%

Question: Which activation does the source give for `COc1ccc(N2C(=O)CC(n3c(CCCCO)nc4ccccc43)C2=O)cc1` (stereo unspecified) here?
Answer: inactive: 2.62%

Question: `O=C(Cn1c(-c2cncs2)nc2ccccc21)NCc1ccccc1` was tested. Which activation did it give?
Answer: inactive: -1.24%

Question: How did the activation turn out when `Cn1c(=O)c2c(ncn2CC(N)=O)n(C)c1=O` was run?
Answer: inactive: -0.57%

Question: How did the activation turn out when `CC1CN(Cc2nc3c(c(=O)[nH]c(=O)n3C)n2CCN2CCOCC2)CC(C)O1` (stereo unspecified) was run?
Answer: inactive: 2.61%

Question: `O=C(CCC(=O)Nc1ccccc1)N/N=C/C=C/c1ccccc1` was tested. Which activation did it give?
Answer: inactive: 6.09%

Question: With `O=C(Nc1ccc2c(c1)nc1n2CCN(Cc2ccccc2)C1)c1cccs1` as the compound, how does the activation read?
Answer: inactive: 0.79%

Question: With `CC(=O)c1ccc(NC(=O)C2CC(=O)Nc3nc4ccccc4n32)cc1` (stereo unspecified) as the compound, how does the activation read?
Answer: inactive: 1.1%

Question: With `Nc1nonc1-c1nc2ccccc2n1CC(=O)Nc1ccccc1` as the compound, how does the activation read?
Answer: inactive: 0.98%

Question: How did the activation turn out when `CCC(=O)Nc1nnc(/C=C/c2ccc(OC)cc2)s1` was run?
Answer: inactive: -0.55%

Question: With `CCN(CC)CCNC(=O)Cn1c(-c2ccccn2)nc2ccccc21` as the compound, how does the activation read?
Answer: inactive: -1.23%

Question: How did the activation turn out when `CCN(CC)CCn1c(=N)n(CCOc2ccccc2)c2ccccc21` was run?
Answer: inactive: -1.14%

Question: For `CC(C)(C)NC(=O)Cn1c(SCC(=O)NC2CCCC2)nc2ccccc21`, which activation is on record?
Answer: inactive: 0.15%

Question: Which activation does the source give for `CCN(N=Nc1nonc1N)c1nonc1N` here?
Answer: inactive: -3.91%

Question: How did the activation turn out when `CCC(=O)N(c1ccccc1)C1CCCCC1` was run?
Answer: inactive: -3.37%

Question: How did the activation turn out when `Cn1c(=O)c2c(nc(NCc3ccccc3)n2CC(=O)NCc2ccccc2)n(C)c1=O` was run?
Answer: inactive: 2.66%

Question: `Nc1cccc2ccc([As](=O)(O)O)cc12` was tested. Which activation did it give?
Answer: inactive: 0.47%

Question: `O=C(Cn1cnc2ccccc21)Nc1cccc([N+](=O)[O-])c1` was tested. Which activation did it give?
Answer: inactive: 5%

Question: With `CC1CCCCN1C(=O)CSc1nc2ccccc2n1CC(=O)N1CCc2ccccc21` (stereo unspecified) as the compound, how does the activation read?
Answer: inactive: 0.22%

Question: For `O=C(Cn1c(SCC(=O)N2CCc3ccccc3C2)nc2ccccc21)NC1CCCC1`, which activation is on record?
Answer: inactive: 6.1%

Question: Which activation does the source give for `Cn1c(=O)n(CC(=O)NCc2cccnc2)c2ccccc21` here?
Answer: inactive: -1.93%

Question: For `O=C(CCCCCNC(=O)N1CCn2c1nc1ccccc12)N[C@@H](Cc1ccccc1)C(=O)O`, which activation is on record?
Answer: inactive: 8.8%

Question: With `Nc1ncnc2c1ncn2C1OC(CO)C(O)C1N` (stereo unspecified) as the compound, how does the activation read?
Answer: inactive: -1.48%

Question: How did the activation turn out when `CC(C)C[C@H](NC(=O)N1CCn2c1nc1ccccc12)C(=O)N1CCCCC1` was run?
Answer: active: 8.73%

Question: How did the activation turn out when `CN1C(=O)Cn2c1nc1ccccc12` was run?
Answer: inactive: 1.13%

Question: With `C[C@H](O)[C@@H]1C(=O)N2CCc3ccc(N4CCOCC4)cc3[C@@H]2C[C@@H]1N(C)C(=O)Nc1ccccc1` as the compound, how does the activation read?
Answer: inactive: -0.57%

Question: Which activation does the source give for `CC(C)CSc1nc2ccccc2n1CC(N)=O` here?
Answer: inactive: 0.3%

Question: With `Cn1c(=O)c2ncn(CC(=O)Nc3ccc4c5c(cccc35)CC4)c2n(C)c1=O` as the compound, how does the activation read?
Answer: inactive: 6.19%

Question: For `CC(=O)Nc1ccc([As](=O)(O)O)cc1`, which activation is on record?
Answer: inactive: 2.19%

Question: Which activation does the source give for `O=C(Cn1c(NCCO)nc2ccccc21)NCC(F)(F)F` here?
Answer: inactive: 3.57%

Question: `Cc1ccc2c(c1)C1CN(C)CCC1N2C(=O)c1ccccc1NS(=O)(=O)c1ccc(F)cc1` (stereo unspecified) was tested. Which activation did it give?
Answer: inactive: -0.1%

Question: With `CCOc1cccc(N2C(=O)CC(n3cnc4ccccc43)C2=O)c1` (stereo unspecified) as the compound, how does the activation read?
Answer: inactive: -0.4%

Question: `O=C(Cn1c(COc2ccccc2)nc2ccccc21)Nc1cc(Cl)cc(Cl)c1` was tested. Which activation did it give?
Answer: inactive: 8.35%

Question: With `O=C(O)c1ccccc1[As](=O)(O)O` as the compound, how does the activation read?
Answer: inactive: 1.58%

Question: For `COc1ccc(N2CCN(C(=O)Cn3cnc4c3c(=O)n(C)c(=O)n4C)CC2)cc1`, which activation is on record?
Answer: inactive: -1%

Question: With `Cn1c(=O)n(CCN2CCOCC2)c(=O)c2c1nc1n2CCN1c1ccc(Oc2ccccc2)cc1` as the compound, how does the activation read?
Answer: inactive: -0.49%

Question: How did the activation turn out when `Cn1c(=O)c2c(ncn2CC(=O)NC[C@H]2O[C@@H](n3cnc4c(N)ncnc43)[C@H](O)[C@@H]2O)n(C)c1=O` was run?
Answer: inactive: 0.68%

Question: Which activation does the source give for `CCCC1OP(N)(=O)OCC1CC` (stereo unspecified) here?
Answer: inactive: -2.36%

Question: How did the activation turn out when `O=C(Cn1cnc2ccccc21)NCc1ccccc1` was run?
Answer: inactive: 4.57%

Question: Which activation does the source give for `COc1ccc(CN(C)C(=O)Cn2cnc3c(OCc4ccccc4)ncnc32)cc1OC` here?
Answer: inactive: -0.58%

Question: How did the activation turn out when `CC(C)[C@H](NC(=O)N1CCn2c1nc1ccccc12)C(=O)NCc1ccccc1Cl` was run?
Answer: inactive: 3.82%

Question: Which activation does the source give for `Cc1ccc(C)c(S(=O)(=O)N2CCN(C(=O)Cn3c(C(F)(F)F)nc4ccccc43)CC2)c1` here?
Answer: inactive: -0.3%

Question: With `Cc1ccc(CNC(=O)Cn2cnc3c(NCc4ccccc4)ncnc32)o1` as the compound, how does the activation read?
Answer: inactive: -2.99%

Question: For `Cc1ccc(-c2csc(NCCn3c(-c4ccncc4)nc4ccccc43)n2)cc1`, which activation is on record?
Answer: inactive: 1.98%

Question: `C(=N\c1nc2ccccc2n1CCN1CCCCC1)/c1ccc2c(c1)OCO2` was tested. Which activation did it give?
Answer: inactive: -0.58%

Question: For `CC(C)NC(=O)CC1C(=O)N(Cc2ccccc2)C(C)c2nc3ccccc3n21` (stereo unspecified), which activation is on record?
Answer: inactive: 4.64%

Question: How did the activation turn out when `CCOC(=O)c1ccccc1NC(=O)Cn1c(-c2nonc2N)nc2ccccc21` was run?
Answer: inactive: 6.88%

Question: How did the activation turn out when `O=P(Nc1nc2ccc(Cl)cc2s1)(c1ccccc1)c1ccccc1` was run?
Answer: inactive: -5.54%

Question: For `O=C(Cn1c(Cc2ccccc2)nc2ccccc21)NCc1ccc2c(c1)OCO2`, which activation is on record?
Answer: inactive: -0.9%

Question: `O=C(Cn1cnc2c(NCc3ccccc3)ncnc21)NCc1nc2ccccc2[nH]1` was tested. Which activation did it give?
Answer: inactive: -1.68%

Question: Which activation does the source give for `CC1CCN(C(=O)Cn2c(SCC(=O)Nc3nccs3)nc3ccccc32)CC1` here?
Answer: inactive: -1.68%

Question: For `COC(=O)c1ccc(CNC(=O)Cn2cnc3c(OCc4ccccc4)ncnc32)cc1`, which activation is on record?
Answer: inactive: 5.17%

Question: How did the activation turn out when `COC(=O)C1=C(C)N=C2SCCC(=O)N2C1/C=C/c1ccccc1` (stereo unspecified) was run?
Answer: inactive: -0.86%
